Data as given in US8975247B2, “Methods and compositions of treating a flaviviridae family viral infection” (priority 2009, dated 2015).

By UniProt entry, the sequences of proteins in these tests, tags left out. Where a name states a change or a piece, a line headed by the entry shows the natural chain unless it says otherwise.
UniProt Q12809: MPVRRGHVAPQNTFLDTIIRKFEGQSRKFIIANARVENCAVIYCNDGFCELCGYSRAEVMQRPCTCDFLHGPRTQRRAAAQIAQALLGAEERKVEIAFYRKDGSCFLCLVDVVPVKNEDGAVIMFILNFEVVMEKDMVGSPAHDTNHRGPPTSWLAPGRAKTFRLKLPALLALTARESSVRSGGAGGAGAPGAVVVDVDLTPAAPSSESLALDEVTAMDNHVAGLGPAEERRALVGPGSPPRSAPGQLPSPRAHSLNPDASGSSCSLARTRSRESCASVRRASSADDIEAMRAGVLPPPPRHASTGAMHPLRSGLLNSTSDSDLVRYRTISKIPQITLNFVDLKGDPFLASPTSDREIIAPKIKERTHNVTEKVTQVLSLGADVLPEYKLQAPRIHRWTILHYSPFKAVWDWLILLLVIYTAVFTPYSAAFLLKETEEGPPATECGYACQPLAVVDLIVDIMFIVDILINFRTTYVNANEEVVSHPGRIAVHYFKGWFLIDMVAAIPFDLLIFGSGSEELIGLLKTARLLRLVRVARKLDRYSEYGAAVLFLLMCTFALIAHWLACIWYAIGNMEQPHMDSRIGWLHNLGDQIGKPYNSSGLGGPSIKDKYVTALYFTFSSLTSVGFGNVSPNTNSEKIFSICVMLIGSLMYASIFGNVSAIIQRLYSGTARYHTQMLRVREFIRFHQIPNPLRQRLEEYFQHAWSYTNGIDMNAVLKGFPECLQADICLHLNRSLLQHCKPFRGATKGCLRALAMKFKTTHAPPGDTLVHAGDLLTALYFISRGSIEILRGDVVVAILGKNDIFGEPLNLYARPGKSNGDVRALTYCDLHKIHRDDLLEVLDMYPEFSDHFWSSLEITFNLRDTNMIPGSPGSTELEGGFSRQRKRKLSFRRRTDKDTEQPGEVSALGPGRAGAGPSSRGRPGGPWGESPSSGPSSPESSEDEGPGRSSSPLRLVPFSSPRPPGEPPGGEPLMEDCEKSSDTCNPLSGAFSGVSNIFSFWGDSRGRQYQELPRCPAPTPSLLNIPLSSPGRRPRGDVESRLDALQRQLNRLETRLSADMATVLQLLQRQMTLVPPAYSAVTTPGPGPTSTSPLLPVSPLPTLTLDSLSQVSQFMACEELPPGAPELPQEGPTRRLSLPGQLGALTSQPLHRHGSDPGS

system: luciferase reporter-linked HCV genome in Huh 7.5 cells; experiment: HCV replication assay with luciferase reporter-linked HCV genome, combinations with clemizole; format: cell-based; details: in combination with clemizole, Huh 7.5, 72 hours, MacSynergy II

With `CNC(=O)c1c(-c2ccc(F)cc2)oc2cc(N(CCO)S(C)(=O)=O)c(C3CC3)cc12` [HCV796] the “additivity or synergy with clemizole” value was “additivity”.
With `CC(C)(C)OC(=O)N[C@H]1CCCCC/C=C\[C@@H]2C[C@@]2(C(=O)NS(=O)(=O)C2CC2)NC(=O)[C@@H]2C[C@@H](OC(=O)N3Cc4cccc(F)c4C3)CN2C1=O` [ITMN-191] the “additivity or synergy with clemizole” value was “additivity”.
With `CC(C)[C@H](N)C(=O)O[C@@H]1[C@@H](CO)O[C@@H](n2ccc(N)nc2=O)[C@]1(C)O` [NM283, valopicitabine] the “additivity or synergy with clemizole” value was “additivity”.
`CC(C)(C)NC(=O)N[C@H](C(=O)N1C[C@H]2[C@@H]([C@H]1C(=O)NC(CC1CCC1)C(=O)C(N)=O)C2(C)C)C(C)(C)C` (stereo partly shown) [SCH503034, boceprevir] was tested, and the “additivity or synergy with clemizole” value was “strong synergy”.
In the case of `CCC[C@H](NC(=O)[C@@H]1[C@H]2CCC[C@H]2CN1C(=O)[C@@H](NC(=O)[C@@H](NC(=O)c1cnccn1)C1CCCCC1)C(C)(C)C)C(=O)C(=O)NC1CC1` [VX-950, telaprevir], the “additivity or synergy with clemizole” value is reported as “strong synergy”.
With `NC(=O)c1ncn([C@@H]2O[C@H](CO)[C@@H](O)[C@H]2O)n1` [ribavirin] the “additivity or synergy with clemizole” value was “additivity”.

system: HCV 1b RNA replicon; experiment: Luciferase assay for HCV genotype 1b replicon reporter cell lines; format: cell-based; details: Hepatitis C virus, 48 h, inhibition of 50% of replication of the 1b replicon

Point of comparison: `Cc1cc2nc(/C=C/C3CCCNC3)n(Cc3ccc(Cl)cc3)c2cc1C` (stereo not shown) [EBP378], EC50 4 µM. Against it:
- Cc1cc2nc(CN3CCC[C@H]3C)n(Cc3ccc(Cl)cc3)c2cc1C [EBP273] — higher, > 25 µM
- Cc1ccc2c(c1)nc(CN1CCC[C@H]1CO)n2Cc1ccc(Cl)cc1 [EBP317] — higher, > 25 µM
- Cc1cc2nc(/C=C/C3CCNC3)n(Cc3ccc(Cl)cc3)c2cc1C (stereo not shown) [EBP372] — within 1.5-fold, 2.8 µM
- Cc1cc2nc(/C=C/c3ccccn3)n(Cc3ccc(Cl)cc3)c2cc1C [EBP375] — 2.2-fold higher, 8.7 µM
- Cc1cc2nc(CCc3ccncc3)n(Cc3ccc(Cl)cc3)c2cc1C [EBP417] — 2-fold higher, 8.1 µM
- Cc1cc2nc(CCC3CCCN3)n(Cc3ccc(Cl)cc3)c2cc1C (stereo not shown) [EBP418] — 2.3-fold higher, 9.1 µM
- Cc1ccc2nc(CN3CCC[C@H]3CO)n(Cc3ccc(Cl)cc3)c2c1 [EBP426] — 2.5-fold higher, 10 µM
- Cc1cc2nc(C(C)Cc3ccncc3)n(Cc3ccc(Cl)cc3)c2cc1C (stereo not shown) [EBP461] — within 1.5-fold, 4.9 µM
- Cc1cc2nc(CC3CCNCC3)n(Cc3ccc(Cl)cc3)c2cc1C [EBP467] — within 1.5-fold, 3.2 µM
- Cc1cc2nc(CC3CCCCC3)n(Cc3ccc(Cl)cc3)c2cc1C [EBP468] — 2-fold higher, 8 µM
- Cc1cc2nc(/C=C/C3CCCN3C)n(Cc3ccc(Cl)cc3)c2cc1C (stereo not shown) [EBP470] — 1.6-fold lower, 2.5 µM
- Cc1ccc2nc(CN3CCC[C@@H]3C)n(Cc3ccc(Cl)cc3)c2c1 [EBP490] — higher, > 25 µM
- Cc1cc2nc(/C=C/C3CCCN(C)C3)n(Cc3ccc(Cl)cc3)c2cc1C (stereo not shown) [EBP549] — 1.9-fold higher, 7.5 µM
- Cc1cc2nc(/C=C/C3CCCN(S(C)(=O)=O)C3)n(Cc3ccc(Cl)cc3)c2cc1C (stereo not shown) [EBP550] — 2.3-fold higher, 9.3 µM
- Cc1cc2nc(CCC3CCCN(C)C3)n(Cc3ccc(Cl)cc3)c2cc1C (stereo not shown) [EBP558] — 2.8-fold higher, 11 µM
- Cc1cc2nc(CC3CCCNC3)n(Cc3ccc(Cl)cc3)c2cc1C (stereo not shown) [EBP660] — 1.6-fold higher, 6.5 µM
- C/C(=C\C1CCNCC1)c1nc2cc(C)c(C)cc2n1Cc1ccc(Cl)cc1 [EBP771] — 1.9-fold higher, 7.5 µM
- Cc1cc2nc(C(C)CC3CCNCC3)n(Cc3ccc(Cl)cc3)c2cc1C (stereo not shown) [EBP796] — within 1.5-fold, 4.7 µM
- C/C(=C\C1CCCNC1)c1nc2cc(C)c(C)cc2n1Cc1ccc(Cl)cc1 (stereo not shown) [EBP797] — 1.6-fold higher, 6.3 µM
- Cc1cc2nc(C(C)CC3CCCN3)n(Cc3ccc(Cl)cc3)c2cc1C (stereo not shown) [EBP799] — 1.5-fold higher, 6 µM
- C/C(=C\C1CCCN1)c1nc2cc(C)c(C)cc2n1Cc1ccc(Cl)cc1 (stereo not shown) [EBP800] — 2-fold higher, 7.9 µM
- CN1CCC(/C=C/c2nc3cc(-c4ccco4)ccc3n2Cc2ccc(Cl)cc2)C1 (stereo not shown) [EBP801] — 1.9-fold lower, 2.1 µM
- CN1CCC(CCc2nc3cc(-c4ccco4)ccc3n2Cc2ccc(Cl)cc2)C1 (stereo not shown) [EBP802] — 2-fold higher, 8.1 µM
- Clc1ccc(Cn2c(CNC3CCNCC3)nc3ccccc32)cc1 [EBP805] — 2.8-fold higher, 11 µM
- CC1CC(NCc2nc3ccccc3n2Cc2ccc(Cl)cc2)CCN1 (stereo not shown) [EBP809] — 2.1-fold higher, 8.3 µM
- Cc1cc2nc(C(C)CC3CCCNC3)n(Cc3ccc(Cl)cc3)c2cc1C (stereo not shown) [EBP847] — 2-fold higher, 7.9 µM
- CN1CCC(/C=C/c2nc3cc(NC4CCCCC4)ccc3n2Cc2ccc(Cl)cc2)C1 (stereo not shown) [EBP848] — 2.1-fold higher, 8.4 µM
- Cc1cc2nc(/C=C3\CCNC(C)C3)n(Cc3ccc(Cl)cc3)c2cc1C (stereo not shown) [EBP869] — within 1.5-fold, 4.6 µM
- Cc1cc2nc(C=C3CC4CCC(C3)N4)n(Cc3ccc(Cl)cc3)c2cc1C [EBP870] — within 1.5-fold, 3.7 µM
- Cc1cc2nc(C=C3CC(C)(C)NC(C)(C)C3)n(Cc3ccc(Cl)cc3)c2cc1C [EBP871] — within 1.5-fold, 2.7 µM
- Cc1cc2nc(CC3CCNC(C)C3)n(Cc3ccc(Cl)cc3)c2cc1C (stereo not shown) [EBP881] — within 1.5-fold, 4.7 µM
- Clc1ccc(Cn2c(CNC3CC4CCCC(C3)N4)nc3ccccc32)cc1 (stereo not shown) [EBP926] — within 1.5-fold, 5.4 µM
- Clc1ccc(Cn2c(CNCC3CCCNC3)nc3ccccc32)cc1 (stereo not shown) [EBP928] — 2.3-fold higher, 9.2 µM
- Clc1ccc(Cn2c(/C=C/C3CCN(CC4CCCCC4)C3)nc3cc(Br)ccc32)cc1 (stereo not shown) [EBP933] — 2.2-fold lower, 1.8 µM
- Clc1ccc(Cn2c(/C=C/C3CCN(C4CCCC4)C3)nc3cc(Br)ccc32)cc1 (stereo not shown) [EBP934] — within 1.5-fold, 5 µM
- Clc1ccc(Cn2c(/C=C\C3CCN(C4CCCC4)C3)nc3cc(Br)ccc32)cc1 (stereo not shown) [EBP935] — 1.9-fold higher, 7.7 µM
- Clc1ccc(Cn2c(/C=C/C3CCN(CCCC4CCCCC4)C3)nc3cc(Br)ccc32)cc1 (stereo not shown) [EBP936] — within 1.5-fold, 4.5 µM
- Clc1ccc(Cn2c(/C=C\C3CCN(CCCC4CCCCC4)C3)nc3cc(Br)ccc32)cc1 (stereo not shown) [EBP937] — within 1.5-fold, 3.7 µM
- Clc1ccc(Cn2c(COCC3CCNCC3)nc3ccccc32)cc1 [EBP977] — 2.2-fold higher, 8.9 µM
- Clc1ccc(Cn2c(COCC3CCCNC3)nc3ccccc32)cc1 (stereo not shown) [EBP978] — 3-fold higher, 12 µM
- Clc1ccc(Cn2c(COCCC3CCNCC3)nc3ccccc32)cc1 [EBP995] — within 1.5-fold, 5.3 µM
- Clc1ccc(Cn2c(CN3CCCC3)nc3ccccc32)cc1 [clemizole] — higher, > 20 µM

same assay, conditions: inhibition of 50% of replication of the 1b replicon, 48 hours

With `Clc1ccc(Cn2c(CN3CCCC3)nc3ccccc32)cc1` [clemizole] the “1b EC50” value was “does not show significant activity”.

system: HCV genotype 4; experiment: CLEAN 1.5 study in HCV genotype 4-infected patients; format: in vivo; details: Day 1=150,000 IU/mL

In the case of `Clc1ccc(Cn2c(CN3CCCC3)nc3ccccc32)cc1` [clemizole], the “Viral Load Day 28, Patient 2, clemizole only arm” value is reported as 480,000 IU/mL.

same assay, conditions: Day 1=330,000 IU/mL; clemizole 100 mg po BID and placebo

For `Clc1ccc(Cn2c(CN3CCCC3)nc3ccccc32)cc1` [clemizole], the “Viral Load Day 28, Patient 1, clemizole only arm” value was 530,000 IU/mL.

system: HCV (genotype 4); experiment: Treatment of patients chronically infected with HCV genotype 4 with clemizole; format: in vivo; details: clemizole 100 mg p.o. BID alone, 4 weeks, 3 genotype 4 patients

In the case of `Clc1ccc(Cn2c(CN3CCCC3)nc3ccccc32)cc1` [clemizole], the “HCV viral load in the serum” value is reported as “completely, or nearly, undetectable”.

system: HCV genotypes 1 and 2; experiment: CLEAN-1 study in HCV genotypes 1 and 2-infected patients; format: in vivo; details: 100 mg po BID, one month, 7 genotype 1b and 3 genotype 2a patients

With `Clc1ccc(Cn2c(CN3CCCC3)nc3ccccc32)cc1` [clemizole] the viral load was “no reduction”.

same assay, conditions: 100 mg po BID, over the treatment period

For `Clc1ccc(Cn2c(CN3CCCC3)nc3ccccc32)cc1` [clemizole], the ALT levels was “did decline”.

same assay, conditions: one genotype 2 patient, 200 mg BID, one month

With `Clc1ccc(Cn2c(CN3CCCC3)nc3ccccc32)cc1` [clemizole] the viral loads was “did not decrease”.

target: hERG channel (Homo sapiens (Human), UniProt Q12809); experiment: hERG channel assay (whole cell patch clamp); details: not given

`Clc1ccc(Cn2c(/C=C/C3CCN(CC4CCCCC4)C3)nc3cc(Br)ccc32)cc1` (stereo not shown) [EBP933] showed an IC50 of 1.1 µM.

system: HCV genotype 2a infectious clone; experiment: HCV genotype 2a infectious clone assay (Renilla luciferase); format: cell-based; details: Hepatitis C virus, read-out: 2a EC50

`Clc1ccc(Cn2c(CN3CCCC3)nc3ccccc32)cc1` [clemizole] showed an EC50 of 8 µM.
